In patent US8987273B2, “Substituted imidazo[1,2-B]pyridazines” (Bayer Intellectual Property GmbH, priority 2010, dated 2015) one finds IC50 data, which are given here for 1 compound.

Sequences of proteins named here, by UniProt entry; tags and fusion partners are left off. A change or cut given only in a name is not applied to a line headed by its entry.
UniProt P31751: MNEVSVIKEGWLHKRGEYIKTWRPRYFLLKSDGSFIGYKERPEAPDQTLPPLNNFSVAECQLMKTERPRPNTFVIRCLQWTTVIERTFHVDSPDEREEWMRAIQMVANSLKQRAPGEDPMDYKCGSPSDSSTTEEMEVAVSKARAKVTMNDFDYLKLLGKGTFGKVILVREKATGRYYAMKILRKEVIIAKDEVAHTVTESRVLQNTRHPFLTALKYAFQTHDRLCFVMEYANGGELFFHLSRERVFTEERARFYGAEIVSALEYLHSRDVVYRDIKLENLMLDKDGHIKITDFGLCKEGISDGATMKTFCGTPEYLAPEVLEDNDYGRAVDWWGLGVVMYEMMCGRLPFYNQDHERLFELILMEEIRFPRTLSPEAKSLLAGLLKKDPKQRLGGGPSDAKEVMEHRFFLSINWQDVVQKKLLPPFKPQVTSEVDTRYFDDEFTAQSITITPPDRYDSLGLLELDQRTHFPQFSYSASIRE

This assay concerns the target His-tagged human recombinant kinase full-length Akt2 (Homo sapiens (Human), UniProt P31751). Nature of the assay: Akt2 kinase assay (TR-FRET). Format: biochemical. Conditions: 10 μM ATP; median. From the text: Akt2 inhibitory activity of compounds of the present invention was quantified employing the Akt2 TR-FRET assay as described in the following paragraphs.
His-tagged human recombinant kinase full-length Akt2 expressed in insect cells and activated by PDK1 was purchased form Invitrogen (part number PV 3975). As substrate for the kinase reaction the biotinylated peptide biotin-Ahx-[…] (C-terminus in amide form) was used which can be purchased e.g. from the company Biosynthan GmbH (Berlin-Buch, Germany). […]
The resulting mixture was incubated 1 h at 22° C. to allow the binding of the biotinylated phosphorylated peptide to the streptavidine-XL665 and the antibodies. Subsequently the amount of phosphorylated substrate was evaluated by measurement of the resonance energy transfer from the anti-mouse-IgG-Eu-Chelate to the streptavidine-XL665. Therefore, the fluorescence emissions at 620 nm and 665 nm after excitation at 350 nm was measured in a TR-FRET reader, e.g. a Rubystar (BMG Labtechnologies, Offenburg, Germany) or a Viewlux (Perkin-Elmer). […]
On the technique in general: In TR-FRET formats the signal depends on donor and acceptor labels being close together.

In the case of `CCc1c(C)nc2cc(-c3ccccc3)c(-c3ccc(C4(N)CCC4)cc3)nn12` [Example 13-0, 1-[4-(3-Ethyl-2-methyl-7-phenyl-imidazo[1,2-b]pyridazin-6-yl)-phenyl]-cyclobutylamine], the IC50 (in general, the concentration needed to halve the response being measured) came to 20 µM.
